Results reported in ChEMBL document CHEMBL6134891, “Thienopyrimidinone Derivatives as a GluN2B/C/D Biased, Positive Allosteric Modulator of the N-Methyl-d-Aspartate Receptor” (J Med Chem, 2025).

Amino acid sequences for entries named in this document (tags omitted). A change or cut given only in a name is not applied to a line headed by its entry.
UniProt Q00960, whole entry, looked up: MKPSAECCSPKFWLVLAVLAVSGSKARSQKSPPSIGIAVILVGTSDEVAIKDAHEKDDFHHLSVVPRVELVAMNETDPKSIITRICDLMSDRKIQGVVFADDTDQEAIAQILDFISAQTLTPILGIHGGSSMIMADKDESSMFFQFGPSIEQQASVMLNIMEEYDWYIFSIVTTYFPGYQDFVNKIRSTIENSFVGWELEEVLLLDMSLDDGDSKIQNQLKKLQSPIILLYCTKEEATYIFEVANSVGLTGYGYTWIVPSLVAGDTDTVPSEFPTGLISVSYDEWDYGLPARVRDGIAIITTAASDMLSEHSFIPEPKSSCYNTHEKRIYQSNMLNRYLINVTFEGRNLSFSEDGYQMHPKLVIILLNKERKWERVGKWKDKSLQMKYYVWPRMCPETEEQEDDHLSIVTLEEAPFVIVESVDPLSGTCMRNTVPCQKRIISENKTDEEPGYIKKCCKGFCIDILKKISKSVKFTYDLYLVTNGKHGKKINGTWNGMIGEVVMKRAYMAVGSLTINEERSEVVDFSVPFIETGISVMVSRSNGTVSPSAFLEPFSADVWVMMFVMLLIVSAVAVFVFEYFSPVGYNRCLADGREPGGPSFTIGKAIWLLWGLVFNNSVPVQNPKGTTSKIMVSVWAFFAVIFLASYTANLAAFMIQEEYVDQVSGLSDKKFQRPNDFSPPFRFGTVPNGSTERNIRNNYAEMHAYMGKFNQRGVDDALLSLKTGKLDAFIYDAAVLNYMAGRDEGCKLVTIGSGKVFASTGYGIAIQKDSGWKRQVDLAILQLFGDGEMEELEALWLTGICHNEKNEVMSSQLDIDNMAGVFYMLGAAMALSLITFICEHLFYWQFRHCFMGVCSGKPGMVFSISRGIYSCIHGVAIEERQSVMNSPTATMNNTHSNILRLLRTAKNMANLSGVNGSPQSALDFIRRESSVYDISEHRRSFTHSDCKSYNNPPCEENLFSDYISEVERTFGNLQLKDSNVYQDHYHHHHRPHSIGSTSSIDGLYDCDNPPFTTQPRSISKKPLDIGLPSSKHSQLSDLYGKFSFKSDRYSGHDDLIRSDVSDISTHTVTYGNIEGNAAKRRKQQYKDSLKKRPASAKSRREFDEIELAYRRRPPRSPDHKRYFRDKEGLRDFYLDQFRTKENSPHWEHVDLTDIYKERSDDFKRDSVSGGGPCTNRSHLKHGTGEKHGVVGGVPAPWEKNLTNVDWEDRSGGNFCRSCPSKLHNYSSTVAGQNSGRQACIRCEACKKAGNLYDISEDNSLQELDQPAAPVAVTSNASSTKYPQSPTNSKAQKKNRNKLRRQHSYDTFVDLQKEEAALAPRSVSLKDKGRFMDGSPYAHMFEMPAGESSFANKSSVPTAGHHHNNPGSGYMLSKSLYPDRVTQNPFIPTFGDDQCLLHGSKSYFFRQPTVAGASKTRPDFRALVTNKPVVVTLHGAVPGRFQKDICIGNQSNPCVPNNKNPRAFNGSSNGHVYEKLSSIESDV
UniProt Q00961: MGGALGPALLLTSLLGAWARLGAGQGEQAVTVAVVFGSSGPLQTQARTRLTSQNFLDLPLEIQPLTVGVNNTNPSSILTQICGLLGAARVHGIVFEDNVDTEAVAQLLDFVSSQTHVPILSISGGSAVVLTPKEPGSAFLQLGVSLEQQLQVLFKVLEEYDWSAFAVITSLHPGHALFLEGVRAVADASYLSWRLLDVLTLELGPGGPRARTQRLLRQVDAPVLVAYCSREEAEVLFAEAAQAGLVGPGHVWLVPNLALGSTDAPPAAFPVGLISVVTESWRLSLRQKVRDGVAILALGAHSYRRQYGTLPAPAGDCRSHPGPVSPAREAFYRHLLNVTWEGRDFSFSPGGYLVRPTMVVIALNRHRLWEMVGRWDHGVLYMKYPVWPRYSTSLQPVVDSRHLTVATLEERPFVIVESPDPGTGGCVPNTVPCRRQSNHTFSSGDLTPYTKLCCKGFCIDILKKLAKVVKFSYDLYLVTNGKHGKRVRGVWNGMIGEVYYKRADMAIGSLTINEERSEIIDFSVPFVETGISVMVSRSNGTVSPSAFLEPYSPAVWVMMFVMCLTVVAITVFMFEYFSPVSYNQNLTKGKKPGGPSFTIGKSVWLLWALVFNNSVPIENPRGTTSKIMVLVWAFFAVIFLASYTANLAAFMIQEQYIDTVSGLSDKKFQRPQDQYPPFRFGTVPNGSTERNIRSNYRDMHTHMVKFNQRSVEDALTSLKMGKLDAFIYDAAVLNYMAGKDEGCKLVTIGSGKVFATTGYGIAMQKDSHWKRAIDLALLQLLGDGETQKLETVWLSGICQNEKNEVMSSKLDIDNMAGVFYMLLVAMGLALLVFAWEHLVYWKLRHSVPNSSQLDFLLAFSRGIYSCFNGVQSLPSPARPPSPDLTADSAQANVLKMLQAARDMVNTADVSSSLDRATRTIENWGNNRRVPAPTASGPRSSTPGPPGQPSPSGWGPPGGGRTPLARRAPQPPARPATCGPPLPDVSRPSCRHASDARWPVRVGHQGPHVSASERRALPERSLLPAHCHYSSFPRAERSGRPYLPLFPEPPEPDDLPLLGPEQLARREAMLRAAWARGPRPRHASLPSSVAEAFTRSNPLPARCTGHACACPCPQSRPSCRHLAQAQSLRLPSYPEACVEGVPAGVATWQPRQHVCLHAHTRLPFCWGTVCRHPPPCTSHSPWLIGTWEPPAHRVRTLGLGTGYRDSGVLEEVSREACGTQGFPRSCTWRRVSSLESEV
UniProt Q62645, whole entry: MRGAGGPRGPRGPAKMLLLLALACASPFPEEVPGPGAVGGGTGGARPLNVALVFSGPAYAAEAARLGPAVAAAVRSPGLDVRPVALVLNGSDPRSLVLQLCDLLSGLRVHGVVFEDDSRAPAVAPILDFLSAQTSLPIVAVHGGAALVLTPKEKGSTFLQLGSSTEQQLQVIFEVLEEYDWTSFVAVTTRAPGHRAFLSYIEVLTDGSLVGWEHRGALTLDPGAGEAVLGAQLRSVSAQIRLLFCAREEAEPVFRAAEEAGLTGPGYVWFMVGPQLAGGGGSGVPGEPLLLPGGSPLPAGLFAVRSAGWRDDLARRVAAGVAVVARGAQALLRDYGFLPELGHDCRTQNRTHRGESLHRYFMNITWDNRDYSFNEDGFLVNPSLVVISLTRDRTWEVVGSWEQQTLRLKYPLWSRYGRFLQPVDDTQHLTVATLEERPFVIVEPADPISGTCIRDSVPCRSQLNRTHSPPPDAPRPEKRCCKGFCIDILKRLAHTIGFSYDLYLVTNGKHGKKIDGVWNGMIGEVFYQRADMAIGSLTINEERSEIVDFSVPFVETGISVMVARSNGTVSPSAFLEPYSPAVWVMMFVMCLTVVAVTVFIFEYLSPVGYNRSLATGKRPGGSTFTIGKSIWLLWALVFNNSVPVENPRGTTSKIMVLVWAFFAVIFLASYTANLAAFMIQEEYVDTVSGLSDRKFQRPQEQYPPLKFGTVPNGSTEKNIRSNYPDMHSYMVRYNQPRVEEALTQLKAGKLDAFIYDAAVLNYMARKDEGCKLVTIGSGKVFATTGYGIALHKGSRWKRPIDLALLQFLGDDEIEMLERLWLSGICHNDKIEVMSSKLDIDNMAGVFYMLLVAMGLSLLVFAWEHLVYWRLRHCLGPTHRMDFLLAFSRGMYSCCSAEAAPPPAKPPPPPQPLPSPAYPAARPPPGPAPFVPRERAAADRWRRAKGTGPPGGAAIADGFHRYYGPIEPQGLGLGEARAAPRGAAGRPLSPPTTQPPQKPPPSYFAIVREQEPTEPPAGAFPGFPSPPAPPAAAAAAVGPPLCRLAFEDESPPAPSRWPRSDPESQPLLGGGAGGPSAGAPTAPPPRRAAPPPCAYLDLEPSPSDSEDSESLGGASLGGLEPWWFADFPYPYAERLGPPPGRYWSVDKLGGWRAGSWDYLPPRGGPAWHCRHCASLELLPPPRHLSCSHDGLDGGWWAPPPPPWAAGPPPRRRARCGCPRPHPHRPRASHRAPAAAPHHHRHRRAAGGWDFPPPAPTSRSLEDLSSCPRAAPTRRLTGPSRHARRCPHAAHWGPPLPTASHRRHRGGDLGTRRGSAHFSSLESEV

How the values were obtained:
Type in all cases: cell-based
Details in all cases: Oocyte, filed as positive allosteric modulator
[1] = biological target: Glutamate receptor ionotropic, NMDA 2B (Rattus norvegicus) (UniProt Q00960)
[2] = biological target: Glutamate receptor ionotropic, NMDA 2C (Rattus norvegicus) (UniProt Q00961)
[3] = biological target: Glutamate receptor ionotropic, NMDA 2D (Rattus norvegicus) (UniProt Q62645)
[4] = biological target: Glutamate receptor ionotropic, NMDA 2B (Rattus norvegicus) (UniProt Q00960); remark: listed apart in the source
[5] = biological target: Glutamate receptor ionotropic, NMDA 2C (Rattus norvegicus) (UniProt Q00961); remark: listed apart in the source
[6] = biological target: Glutamate receptor ionotropic, NMDA 2D (Rattus norvegicus) (UniProt Q62645); remark: listed apart in the source

SMILES | Emax [1] | Emax [2] | Emax [3] | Emax [4] | Emax [5] | Emax [6]
CC1(F)CN(C(=O)Cn2cnc3sc(C#N)c(-c4ccc(F)c(Br)c4)c3c2=O)C1 | 347% | 1080% | 702% |  |  | 
Cc1sc2ncn(CC(=O)N3CCC3)c(=O)c2c1-c1cccc(Br)c1 | 310% | 301% | 505% |  |  | 
Cc1sc2ncn(CC(=O)N3CC(C)(F)C3)c(=O)c2c1-c1cc(Cl)ccc1F | 275% | 1020% | 1220% |  |  | 
Cc1sc2ncn(CC(=O)N3CC(C)(F)C3)c(=O)c2c1-c1cccc(C(F)(F)F)c1 | 253% | 710% | 1370% |  |  | 
Cc1sc2ncn(CC(=O)N3CC[C@H](F)C3)c(=O)c2c1-c1cccc(Br)c1 | 616% | 1130% | 2310% |  |  | 
Cc1sc2ncn(CC(=O)N3CC(C)(F)C3)c(=O)c2c1-c1cc(F)cc(Cl)c1 | 343% | 928% | 1270% |  |  | 
CC1(F)CN(C(=O)Cn2cnc3sc([N+](=O)[O-])c(-c4ccc(F)c(Br)c4)c3c2=O)C1 | 282% | 544% | 615% |  |  | 
Cc1sc2ncn(CC(=O)N3CC(C)(F)C3)c(=O)c2c1-c1ccc2ccccc2c1 | 531% | 721% | 1980% |  |  | 
Cc1sc2ncn(CC(=O)N3CC(C)(F)C3)c(=O)c2c1-c1ccc(F)c(Cl)c1 | 362% | 632% | 1620% |  |  | 
Cc1sc2ncn(CC(=O)N3CCC(C)C3)c(=O)c2c1-c1cccc(Br)c1 (configuration not stated) | 221% | 725% | 1350% |  |  | 
Cc1sc2ncn(CC(=O)N3CC(C)(C)C3)c(=O)c2c1-c1cccc(Br)c1 | 254% | 418% | 640% |  |  | 
Cc1sc2ncn(CC(=O)N3CC(C)(F)C3)c(=O)c2c1-c1cccc(Cl)c1F | 306% | 930% | 1320% |  |  | 
CC1(F)CN(C(=O)Cn2cnc3scc(-c4ccc(F)c(Br)c4)c3c2=O)C1 | 387% | 775% | 1540% |  |  | 
Cc1sc2ncn(CC(=O)N3CCC[C@@H]3C)c(=O)c2c1-c1cccc(Br)c1 | 241% | 410% | 428% |  |  | 
Cc1sc2ncn(CC(=O)N3CC(C)(F)C3)c(=O)c2c1-c1ccc(F)c(C#N)c1 | 346% | 1200% | 1750% |  |  | 
Cc1sc2ncn(CC(=O)N3CC(C)(F)C3)c(=O)c2c1-c1cccc(Cl)c1 | 303% | 683% | 1420% |  |  | 
Cc1sc2ncn(CC(=O)N3CC(C)(F)C3)c(=O)c2c1-c1ccc2c(c1)OC(F)(F)O2 | 368% | 1060% | 1450% |  |  | 
Cc1sc2ncn(CC(=O)N3CCCC3)c(=O)c2c1-c1cccc(Br)c1 |  |  |  | 274% | 491% | 654%
Cc1sc2ncn(CC(=O)N3CC(C)(F)C3)c(=O)c2c1-c1ccc(Cl)c(Cl)c1 | 359% | 582% | 1080% |  |  | 
CC1(F)CN(C(=O)Cn2cnc3sc(C(F)(F)F)c(-c4ccc(F)c(Br)c4)c3c2=O)C1 | 528% | 1050% | 1990% |  |  | 
Cc1sc2ncn(CC(=O)N3CC(F)C3)c(=O)c2c1-c1cccc(Br)c1 | 271% | 358% | 396% |  |  | 

Continued, values first:

Emax [1] | Emax [2] | Emax [3] | Emax [4] | Emax [5] | Emax [6] | SMILES
278% | 877% | 1320% |  |  |  | Cc1sc2ncn(CC(=O)N3CCC(C)(F)C3)c(=O)c2c1-c1cccc(Br)c1 (configuration not stated)
287% | 734% | 1220% |  |  |  | CCC1(F)CN(C(=O)Cn2cnc3sc(C)c(-c4cccc(Br)c4)c3c2=O)C1
404% | 1080% | 1600% |  |  |  | Cc1sc2ncn(CC(=O)N3CC(C)(F)C3)c(=O)c2c1-c1ccc(F)c(OC(C)C)c1
236% | 750% | 614% |  |  |  | Cc1sc2ncn(CC(=O)N3CC(C)C3)c(=O)c2c1-c1cccc(Br)c1
106% | 91% | 100% |  |  |  | C#CC1(F)CN(C(=O)Cn2cnc3sc(C)c(-c4cccc(Br)c4)c3c2=O)C1
676% | 730% | 1040% |  |  |  | Cc1sc2ncn(CC(=O)N3CC(C)(F)C3)c(=O)c2c1-c1ccc2ccn(C)c2c1
251% | 386% | 1350% |  |  |  | Cc1sc2ncn(CC(=O)N3CC(C)(F)C3)c(=O)c2c1-c1ccc(F)c(Br)c1
370% | 522% | 560% |  |  |  | Cc1sc2ncn(CC(=O)N3CC[C@@H](F)C3)c(=O)c2c1-c1cccc(Br)c1
499% | 1170% | 1650% |  |  |  | CCc1sc2ncn(CC(=O)N3CC(C)(F)C3)c(=O)c2c1-c1ccc(F)c(Br)c1
315% | 738% | 1160% |  |  |  | Cc1sc2ncn(CC(=O)N3CCC(F)(F)C3)c(=O)c2c1-c1cccc(Br)c1
153% | 234% | 343% |  |  |  | CCCC1(F)CN(C(=O)Cn2cnc3sc(C)c(-c4cccc(Br)c4)c3c2=O)C1
310% | 666% | 1380% |  |  |  | Cc1sc2ncn(CC(=O)N3CC(C)(F)C3)c(=O)c2c1-c1cccc(OC(F)(F)F)c1
103% | 110% | 103% |  |  |  | Cc1sc2ncn(CC(=O)N3CC[C@@H](O)C3)c(=O)c2c1-c1cccc(Br)c1
216% | 702% | 1380% |  |  |  | Cc1sc2ncn(CC(=O)N3CC(C)(F)C3)c(=O)c2c1-c1ccc(F)c(C(F)(F)F)c1
392% | 427% | 379% |  |  |  | Cc1sc2ncn(CC(=O)N3CCC[C@H]3C)c(=O)c2c1-c1cccc(Br)c1
222% | 531% | 1040% |  |  |  | Cc1sc2ncn(CC(=O)N3CC(F)(C4CC4)C3)c(=O)c2c1-c1cccc(Br)c1
310% | 877% | 1280% |  |  |  | Cc1sc2ncn(CC(=O)N3CC(C)(F)C3)c(=O)c2c1-c1ccc(Cl)c(F)c1
350% | 774% | 1350% |  |  |  | Cc1sc2ncn(CC(=O)N3CC(C)(F)C3)c(=O)c2c1-c1cccc(Br)c1
